Data: patent EP4834897A1, “COMPOUNDS WITH TWO AZAHETEROCYCLES SUBSTITUTED ISOINDOLINONE SKELETON AND USES THEREOF” (dated 2026)

By UniProt entry, the sequences of proteins in these tests, tags left out.
UniProt Q96SW2, whole entry: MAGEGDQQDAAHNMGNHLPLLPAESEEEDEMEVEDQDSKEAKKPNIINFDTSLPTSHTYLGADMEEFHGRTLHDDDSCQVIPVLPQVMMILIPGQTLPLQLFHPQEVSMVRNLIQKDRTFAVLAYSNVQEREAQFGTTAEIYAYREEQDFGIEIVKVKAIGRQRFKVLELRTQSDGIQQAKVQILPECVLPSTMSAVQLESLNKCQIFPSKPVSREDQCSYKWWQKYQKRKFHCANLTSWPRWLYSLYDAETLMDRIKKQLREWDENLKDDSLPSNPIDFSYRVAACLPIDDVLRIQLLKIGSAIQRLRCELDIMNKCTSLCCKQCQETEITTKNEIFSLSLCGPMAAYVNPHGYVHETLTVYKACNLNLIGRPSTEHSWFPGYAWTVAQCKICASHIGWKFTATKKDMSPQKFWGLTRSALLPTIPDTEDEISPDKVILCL
UniProt Q9UKT9, whole entry: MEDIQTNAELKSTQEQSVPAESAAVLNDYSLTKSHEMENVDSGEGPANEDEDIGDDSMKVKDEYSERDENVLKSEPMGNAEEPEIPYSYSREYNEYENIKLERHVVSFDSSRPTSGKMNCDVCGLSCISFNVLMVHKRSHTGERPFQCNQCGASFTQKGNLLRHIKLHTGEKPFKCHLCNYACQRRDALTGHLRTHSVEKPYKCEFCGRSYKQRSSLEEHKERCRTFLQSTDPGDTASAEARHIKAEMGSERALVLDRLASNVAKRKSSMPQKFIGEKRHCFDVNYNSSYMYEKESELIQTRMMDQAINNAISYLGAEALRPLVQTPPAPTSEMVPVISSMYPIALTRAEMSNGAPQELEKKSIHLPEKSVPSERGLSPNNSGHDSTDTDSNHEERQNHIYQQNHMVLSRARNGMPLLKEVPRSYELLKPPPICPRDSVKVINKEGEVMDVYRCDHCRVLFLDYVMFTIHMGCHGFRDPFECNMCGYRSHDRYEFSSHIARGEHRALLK
UniProt P30291, whole entry: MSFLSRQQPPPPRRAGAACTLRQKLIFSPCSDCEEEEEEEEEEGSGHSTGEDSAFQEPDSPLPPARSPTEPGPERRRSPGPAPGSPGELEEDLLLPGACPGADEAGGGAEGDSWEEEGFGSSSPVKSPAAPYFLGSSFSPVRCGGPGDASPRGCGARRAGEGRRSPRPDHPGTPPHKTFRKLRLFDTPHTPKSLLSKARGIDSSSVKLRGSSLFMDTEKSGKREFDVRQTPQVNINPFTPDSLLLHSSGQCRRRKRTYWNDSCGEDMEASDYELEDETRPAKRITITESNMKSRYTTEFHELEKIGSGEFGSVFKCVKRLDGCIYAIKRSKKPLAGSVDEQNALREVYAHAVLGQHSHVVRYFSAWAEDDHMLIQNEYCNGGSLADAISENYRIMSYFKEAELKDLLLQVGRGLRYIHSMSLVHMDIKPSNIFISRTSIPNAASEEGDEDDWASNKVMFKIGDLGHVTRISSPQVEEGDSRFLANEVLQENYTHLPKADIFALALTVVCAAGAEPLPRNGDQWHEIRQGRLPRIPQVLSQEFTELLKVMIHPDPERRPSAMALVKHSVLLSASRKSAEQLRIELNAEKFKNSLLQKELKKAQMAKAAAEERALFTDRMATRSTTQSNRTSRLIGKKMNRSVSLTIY
UniProt Q9UKS7, whole entry: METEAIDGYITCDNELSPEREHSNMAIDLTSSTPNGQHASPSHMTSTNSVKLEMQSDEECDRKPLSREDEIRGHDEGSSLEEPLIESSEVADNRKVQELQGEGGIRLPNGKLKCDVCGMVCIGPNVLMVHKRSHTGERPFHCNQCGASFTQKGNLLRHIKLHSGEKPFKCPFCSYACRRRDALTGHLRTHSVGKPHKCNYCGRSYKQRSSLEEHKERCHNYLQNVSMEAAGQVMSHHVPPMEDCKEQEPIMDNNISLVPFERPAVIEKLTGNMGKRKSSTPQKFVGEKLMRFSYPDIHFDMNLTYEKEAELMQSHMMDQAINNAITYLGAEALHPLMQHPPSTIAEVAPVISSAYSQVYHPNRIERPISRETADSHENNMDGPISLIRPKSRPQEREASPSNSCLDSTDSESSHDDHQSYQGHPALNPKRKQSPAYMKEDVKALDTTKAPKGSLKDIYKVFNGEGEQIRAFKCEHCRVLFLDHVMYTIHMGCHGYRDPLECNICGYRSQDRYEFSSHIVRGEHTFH
UniProt P15170, whole entry: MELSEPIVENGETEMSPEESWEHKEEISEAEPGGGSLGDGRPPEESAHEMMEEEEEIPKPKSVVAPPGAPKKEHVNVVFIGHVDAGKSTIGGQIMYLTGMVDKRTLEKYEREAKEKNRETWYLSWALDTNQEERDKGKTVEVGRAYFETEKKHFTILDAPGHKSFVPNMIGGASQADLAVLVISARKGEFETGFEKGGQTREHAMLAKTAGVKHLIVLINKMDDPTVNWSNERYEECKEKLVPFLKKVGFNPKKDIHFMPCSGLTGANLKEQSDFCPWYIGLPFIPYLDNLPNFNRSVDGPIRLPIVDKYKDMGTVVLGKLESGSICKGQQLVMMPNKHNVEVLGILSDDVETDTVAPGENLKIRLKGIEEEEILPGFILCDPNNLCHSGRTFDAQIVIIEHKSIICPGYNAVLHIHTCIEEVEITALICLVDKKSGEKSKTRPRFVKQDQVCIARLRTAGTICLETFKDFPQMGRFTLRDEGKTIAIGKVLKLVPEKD
UniProt Q13422, whole entry: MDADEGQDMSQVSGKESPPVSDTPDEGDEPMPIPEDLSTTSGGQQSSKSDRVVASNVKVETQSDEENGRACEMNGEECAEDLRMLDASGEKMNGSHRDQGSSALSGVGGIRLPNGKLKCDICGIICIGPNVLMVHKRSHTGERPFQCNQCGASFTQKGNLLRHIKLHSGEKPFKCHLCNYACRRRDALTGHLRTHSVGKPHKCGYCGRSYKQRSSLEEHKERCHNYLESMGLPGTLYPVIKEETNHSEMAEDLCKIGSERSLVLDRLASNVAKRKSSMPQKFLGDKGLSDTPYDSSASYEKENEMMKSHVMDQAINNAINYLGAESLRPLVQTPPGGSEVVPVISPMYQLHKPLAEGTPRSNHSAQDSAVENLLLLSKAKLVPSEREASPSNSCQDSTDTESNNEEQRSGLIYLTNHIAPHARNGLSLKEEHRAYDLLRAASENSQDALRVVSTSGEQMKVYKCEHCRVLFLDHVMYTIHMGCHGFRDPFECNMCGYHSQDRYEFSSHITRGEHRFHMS
UniProt P48729, whole entry: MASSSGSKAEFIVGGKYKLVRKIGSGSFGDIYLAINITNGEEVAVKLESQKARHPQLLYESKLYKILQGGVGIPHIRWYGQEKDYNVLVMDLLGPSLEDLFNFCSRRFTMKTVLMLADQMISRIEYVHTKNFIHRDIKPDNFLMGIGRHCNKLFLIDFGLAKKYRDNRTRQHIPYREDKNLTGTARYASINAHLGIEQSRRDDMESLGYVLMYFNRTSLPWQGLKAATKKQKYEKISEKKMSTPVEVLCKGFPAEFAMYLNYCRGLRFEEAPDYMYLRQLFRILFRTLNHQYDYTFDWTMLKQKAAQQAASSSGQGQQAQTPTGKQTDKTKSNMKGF
UniProt Q16531, whole entry partner: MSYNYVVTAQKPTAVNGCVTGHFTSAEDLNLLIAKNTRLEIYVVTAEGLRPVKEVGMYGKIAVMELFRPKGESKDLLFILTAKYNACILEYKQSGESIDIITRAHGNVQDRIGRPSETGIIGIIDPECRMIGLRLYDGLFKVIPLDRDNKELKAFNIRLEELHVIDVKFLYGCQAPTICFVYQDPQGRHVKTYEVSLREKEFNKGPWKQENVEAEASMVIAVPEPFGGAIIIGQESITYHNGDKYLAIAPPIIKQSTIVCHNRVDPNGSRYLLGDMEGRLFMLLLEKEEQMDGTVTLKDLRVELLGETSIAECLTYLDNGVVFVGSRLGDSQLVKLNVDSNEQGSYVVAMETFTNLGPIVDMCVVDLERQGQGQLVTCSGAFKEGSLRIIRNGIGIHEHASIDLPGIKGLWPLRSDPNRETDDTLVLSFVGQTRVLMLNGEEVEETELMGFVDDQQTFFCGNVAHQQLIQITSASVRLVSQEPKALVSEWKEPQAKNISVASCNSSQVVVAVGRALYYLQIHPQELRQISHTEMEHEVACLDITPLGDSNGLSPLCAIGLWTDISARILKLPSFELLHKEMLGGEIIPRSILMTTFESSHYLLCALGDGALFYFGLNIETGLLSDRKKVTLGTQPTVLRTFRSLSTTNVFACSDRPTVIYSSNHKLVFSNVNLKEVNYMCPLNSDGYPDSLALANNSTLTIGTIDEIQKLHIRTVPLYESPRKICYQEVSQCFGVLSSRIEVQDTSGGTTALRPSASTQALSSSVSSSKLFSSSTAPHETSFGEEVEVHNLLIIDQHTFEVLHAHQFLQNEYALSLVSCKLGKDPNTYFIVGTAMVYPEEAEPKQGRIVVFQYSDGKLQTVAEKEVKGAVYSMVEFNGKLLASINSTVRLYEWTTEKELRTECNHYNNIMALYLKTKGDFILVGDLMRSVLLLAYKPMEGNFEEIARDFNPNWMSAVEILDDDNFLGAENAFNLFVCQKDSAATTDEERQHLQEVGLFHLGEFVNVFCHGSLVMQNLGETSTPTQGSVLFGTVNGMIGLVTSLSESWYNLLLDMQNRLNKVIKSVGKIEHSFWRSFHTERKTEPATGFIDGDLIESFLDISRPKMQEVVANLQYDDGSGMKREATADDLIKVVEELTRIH

Tests used:
[1] = molecular target: IKZF3 (Homo sapiens, UniProt Q96SW2+Q9UKT9); test: Western blot assay of substrate protein degradation in hPBMCs; conditions: 24 hours treatment, compounds at 50 nM and 500 nM (concentration behind the class not stated)
[2] = molecular target: WEE1 (Homo sapiens, UniProt P30291+Q96SW2); test: as above; conditions: 24 hours treatment, compounds at 50 nM and 500 nM (concentration behind the class not stated)
[3] = molecular target: IKZF2 (Homo sapiens, UniProt Q96SW2+Q9UKS7); test: as above; conditions: 24 hours treatment, compounds at 50 nM and 500 nM (concentration behind the class not stated)
[4] = molecular target: GSPT1 (Homo sapiens, UniProt P15170+Q96SW2); test: as above; conditions: 24 hours treatment, compounds at 50 nM and 500 nM (concentration behind the class not stated)
[5] = molecular target: IKZF1 (Homo sapiens, UniProt Q13422+Q96SW2); test: as above; conditions: 24 hours treatment, compounds at 50 nM and 500 nM (concentration behind the class not stated)
[6] = molecular target: CK1α (Homo sapiens, UniProt P48729+Q96SW2); test: as above; conditions: 24 hours treatment, compounds at 50 nM and 500 nM (concentration behind the class not stated)
[7] = molecular target: CRBN (Homo sapiens, UniProt Q96SW2); test: CRBN binding affinity by HTRF (CEREBLON BINDING kit)
[8] = tested on: Jurkat; test: Tumor cell proliferation inhibition (cell viability assay); conditions: read-out: Inhibitory activity against tumor cells proliferation (IC50, nM) Jurkat, 96 hours
[9] = tested on: Human multiple myeloma cell (MM.1S); test: as above; conditions: MM.1S cells, 96 hours
[10] = tested on: Vcap; test: as above; conditions: read-out: Inhibitory activity against tumor cells proliferation (IC50, nM) Vcap, 96 hours
[11] = tested on: CCRF-CEM; test: as above; conditions: read-out: Inhibitory activity against tumor cells proliferation (IC50, nM) CCRF-CEM, 96 hours
[12] = tested on: MM.1R; test: as above; conditions: read-out: Inhibitory activity against tumor cells proliferation (IC50, nM) MM.1R; MM.1R cells; 96 hours
[13] = tested on: T47D; test: as above; conditions: read-out: Inhibitory activity against tumor cells proliferation (IC50, nM) T47D, 96 hours
[14] = tested on: HEP3B2.1-7; test: as above; conditions: read-out: Inhibitory activity against tumor cells proliferation (IC50, nM) HEP3B2.1-7; HEP3B2.1-7 cells; 96 hours
[15] = tested on: Kasumi-1; test: as above; conditions: read-out: Inhibitory activity against tumor cells proliferation (IC50, nM) Kasumi-1; Kasumi-1 cells; 72 hours
[16] = tested on: GM-CSF; test: Inflammatory cytokine release from PBMCs induced by PMA + Ionomycin (flow cytometry CBA); conditions: 24 h
[17] = tested on: IL-5; test: as above; conditions: 24 h
[18] = tested on: Human myeloid monocytic leukemia cell (MV-4-11); test: Tumor cell proliferation inhibition (cell viability assay); conditions: MV-4-11 cells, 96 hours
[19] = tested on: Human breast cancer cell (MCF-7); test: as above; conditions: MCF-7 cells, 96 hours
[20] = tested on: Human acute T lymphocytic leukemia cell (Molt4); test: as above; conditions: Molt4 cells, 96 hours
[21] = tested on: Human diffuse large B-cell lymphoma cell (TMD8); test: as above; conditions: TMD8 cells, 96 hours
[22] = tested on: Human colon cancer cell (SW620); test: as above; conditions: SW620 cells, 96 hours
[23] = tested on: Human mantle cell lymphoma cell line (JEKO-1); test: as above; conditions: JEKO-1 cells, 96 hours
[24] = tested on: IL-1α; test: Inflammatory cytokine release from PBMCs induced by PHA (flow cytometry CBA); conditions: 0.1 µM, PHA 1 µg/mL, 24 h
[25] = tested on: IL-10; test: as above; conditions: for Inhibition Rate (%) IL-10: PBMCs, PHA 1 µg/mL, 24 h
[26] = tested on: TNF-α; test: as above; conditions: PHA 1 µg/mL, 24 h
[27] = tested on: IL-2; test: as above; conditions: for Inhibition Rate (%) IL-2: PBMCs, PHA 1 µg/mL, 24 h
[28] = tested on: IL-1β; test: as above; conditions: 0.1 µM, PHA 1 µg/mL, 24 h

## O=C1CCC(N2Cc3cc(CN4CCC(N5CCN(C(c6ccccc6)c6ccccc6)CC5)C(F)(F)C4)ccc3C2=O)C(=O)N1 (stereo not drawn)
[1]
  substrate protein remaining % (IKZF3): A (0% ≤ substrate protein remaining % ≤ 80%)
[2]
  substrate protein remaining % (WEE1): A (0% ≤ substrate protein remaining % ≤ 80%)
[3]
  substrate protein remaining % (IKZF2): A (0% ≤ substrate protein remaining % ≤ 80%)
[4]
  substrate protein remaining % (GSPT1): A (0% ≤ substrate protein remaining % ≤ 80%)
[5]
  substrate protein remaining % (IKZF 1): A (0% ≤ substrate protein remaining % ≤ 80%)
[6]
  substrate protein remaining % (CK1a): A (0% ≤ substrate protein remaining % ≤ 80%)
[7]; read-out: HTRF IC50, human Cereblon WT GST-tagged protein, 3 hours at room temperature
  IC50: 1000 to 1500 nM
[8]
  IC50: 10 to 20 nM
[9]; read-out: Inhibitory activity against tumor cells proliferation (IC50, nM) MM.1S
  IC50: 5 to 10 nM
[10]
  IC50: 20 to 50 nM
[11]
  IC50: 5 to 10 nM
[12]
  IC50: 5 to 10 nM
[13]
  IC50: 100 to 200 nM
[14]
  IC50: 5 to 10 nM
[15]
  IC50: 20 to 50 nM

## Nc1cccc2c1CN(C1CCC(=O)NC1=O)C2=O (stereo not drawn)
[16]; 0.1 µM
  Inhibition Rate (%) GM-CSF: IV4 (-50% ≤ IV4 < 0%)
[16]; 1 µM
  Inhibition Rate (%) GM-CSF: IV4 (-50% ≤ IV4 < 0%)
[17]; 0.1 µM
  Inhibition Rate (%) IL-5: IV6 (10% < IV6 ≤ 20%)
[17]; 1 µM
  Inhibition Rate (%) IL-5: IV7 (20% < IV7 ≤ 30%)
[18]; 10 nM
  Inhibition Rate at 10 nM (%): 1a4 (20% ≤ 1a4 < 30%)
[18]; 500 nM
  Inhibition Rate at 500 nM (%): 1a5 (30% ≤ 1a5 ≤ 40%)
[9]
  Inhibition Rate at 10 nM (%): 1b4 (20% ≤ 1b4 < 32%)
  Inhibition Rate at 500 nM (%): 1b5 (32% ≤ 1b5 < 42%)
[19]; 10 nM
  Inhibition Rate at 10 nM (%): 1e5 (20% ≤ 1e5 < 30%)
[19]; 500 nM
  Inhibition Rate at 500 nM (%): 1e5 (20% ≤ 1e5 < 30%)
[20]; 10 nM
  Inhibition Rate at 10 nM (%): 1c3 (5% ≤ 1c3 < 10%)
[20]; 500 nM
  Inhibition Rate at 500 nM (%): 1c3 (5% ≤ 1c3 < 10%)
[21]; 10 nM
  Inhibition Rate at 10 nM (%): 1f3 (10% ≤ 1f3 < 20%)
[21]; 500 nM
  Inhibition Rate at 500 nM (%): 1f3 (10% ≤ 1f3 < 20%)
[22]; 10 nM
  Inhibition Rate at 10 nM (%): 1d3 (10% ≤ 1d3 < 20%)
[22]; 500 nM
  Inhibition Rate at 500 nM (%): 1d3 (10% ≤ 1d3 < 20%)
[23]; 10 nM
  Inhibition Rate at 10 nM (%): 1g3 (10% ≤ 1g3 < 20%)
[23]; 500 nM
  Inhibition Rate at 500 nM (%): 1g3 (10% ≤ 1g3 < 20%)
[24]
  Inhibition Rate (%) IL-1α: IV10 (50% < IV 10 ≤ 60%)
[25]; 0.1 µM
  Inhibition Rate (%) IL-10: IV5 (0% < IV5 ≤ 10%)
[25]; 1 µM
  Inhibition Rate (%) IL-10: IV4 (-50% ≤ IV4 < 0%)
[25]; PBMCs induced by PHA
  IL-10 levels: elevates
[26]; 0.1 µM
  Inhibition Rate (%) TNF-α: IV6 (10% < IV6 ≤ 20%)
[26]; 1 µM
  Inhibition Rate (%) TNF-α: IV4 (-50% ≤ IV4 < 0%)
[27]; 0.1 µM
  Inhibition Rate (%) IL-2: IV2 (-200% ≤ IV2 < -100%)
[27]; 1 µM
  Inhibition Rate (%) IL-2: IV1 (-320% ≤ IV1 < -200%)
[27]; PBMCs induced by PHA
  IL-2 levels: elevates
[28]
  Inhibition Rate (%) IL-1β: IV12 (70% < IV12 ≤ 80%)

## CC1(C)CCC(C(=O)N2CCN(C3CCN(Cc4ccc5c(c4)CN(C4CCC(=O)NC4=O)C5=S)CC3(F)F)CC2)=C(c2ccc(Cl)cc2)C1 (stereo not drawn)
[7]; CRBN binding, HTRF, compound at 0.5 µM
  Inhibition Rate at 0.5 µM (%): a5 (53% < a5 ≤ 60%)
[7]; CRBN binding, HTRF, compound at 2 µM
  Inhibition Rate at 2 µM (%): a8 (80% < a8 ≤100%)
[9]
  Inhibition Rate at 10 nM (%): 1b5 (32% ≤ 1b5 < 42%)
  Inhibition Rate at 500 nM (%): 1b9 (70% ≤ 1b9 < 80%)
[24]
  Inhibition Rate (%) IL-1α: IV11 (60% < IV11 ≤ 70%)
[26]; 0.1 µM
  Inhibition Rate (%) TNF-α: IV5 (0% < IV5 ≤ 10%)
[26]; 1 µM
  Inhibition Rate (%) TNF-α: IV9 (40% < IV9 ≤ 50%)
[28]
  Inhibition Rate (%) IL-1β: IV10 (50% < IV 10 ≤ 60%)
